Values of other authors, collected in US20130287898A1, “Trivalent Chromium and Boron Fortifying Composition, a Hydration Supplement, and Process for Preparing the Same” (priority 2010, published 2013).
Where two headings read alike, the source gives them in different places.

Assays:
[1] = Chromium 454: room temperature
[2] = oral, compared to the equivalent amount of boron citrate

Calcium Fructoborate Ca(C6H10O6BO)2X3X5H2O [FruiteX-B]
solubility in water [1]: water-soluble
relative systemic availability of boron ([2]; 43 microgram amount of boron): 110%
relative systemic availability of boron ([2]; 1000 microgram amount of boron): 160%
